Test results: patent US20060106064A1, “Butyrophenones and sigma-1 receptor antagonists protect against oxidative-stress” (University of North Texas Health Science Center at Fort …, priority 2004, published 2006)

Amino acid sequences for entries named in this document (tags omitted).
UniProt Q99720, whole entry: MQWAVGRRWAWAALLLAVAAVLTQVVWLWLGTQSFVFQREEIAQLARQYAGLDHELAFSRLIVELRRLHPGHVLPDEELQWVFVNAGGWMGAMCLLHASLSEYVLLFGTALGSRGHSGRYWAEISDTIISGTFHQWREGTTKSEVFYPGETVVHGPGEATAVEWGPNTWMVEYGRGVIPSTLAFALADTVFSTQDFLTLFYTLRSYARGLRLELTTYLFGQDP

Biological target: human Sigma-1 receptor (Homo sapiens, UniProt Q99720)
Assay: [3H]-(+)-pentazocine binding to MCF-7 cells stably expressing the cloned human Sigma-1 receptor
Conditions: read-out: Affinity for the cloned Sigma-1 receptor (Ki ± SEM); Table 4

## Clc1ccc(N2CCN(Cc3c[nH]c4ncccc34)CC2)cc1 [L745870, 3-((4-(4-Chlorophenyl)piperazin-1-yl)-methyl)-1H-pyrrolo-2,3-b-pyridine]
  Ki: 63 ± 13 nM
